Here are results for one molecule from ChEMBL document CHEMBL4041480, “Natural and synthetic bioactive inhibitors of glycogen synthase kinase” (Eur J Med Chem, 2017).

Sequences of proteins named here, by UniProt entry; tags and fusion partners are left off. A change or cut given only in a name is not applied to a line headed by its entry.
UniProt P49841: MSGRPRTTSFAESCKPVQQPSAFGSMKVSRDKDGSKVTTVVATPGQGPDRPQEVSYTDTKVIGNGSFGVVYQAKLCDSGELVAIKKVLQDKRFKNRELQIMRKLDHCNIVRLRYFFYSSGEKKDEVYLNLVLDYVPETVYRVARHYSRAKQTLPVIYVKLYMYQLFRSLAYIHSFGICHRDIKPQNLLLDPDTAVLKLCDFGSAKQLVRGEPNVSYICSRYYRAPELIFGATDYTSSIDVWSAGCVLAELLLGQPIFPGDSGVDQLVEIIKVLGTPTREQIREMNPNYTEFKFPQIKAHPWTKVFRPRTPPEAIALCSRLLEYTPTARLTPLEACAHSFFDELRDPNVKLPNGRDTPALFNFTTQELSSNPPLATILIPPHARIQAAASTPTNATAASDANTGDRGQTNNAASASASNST

Molecules are shown by their SMILES.

The target in the test is Glycogen synthase kinase-3 beta (Homo sapiens, UniProt P49841).

For `C/C(=C\C=C\[C@@H](C)CC/C=C(\C)CC1OC(=O)C(=O)C1=O)CCCc1ccoc1` (stereo partly specified), half-maximal inhibition (IC50) was put at 7.5 µM.

A word on the IC50: it is the midpoint of a concentration-inhibition curve. Lower therefore signals greater potency.
